scFv variants of Ab-14 (heavy chain) against a SARS-CoV-2 spike peptide

Data: MIT Lincoln Laboratory AlphaSeq set, Engelhart et al. 2022, doi:10.1038/s41597-022-01779-4, as distributed in FLAb.

The target is the same throughout: PDVDLGDISGINAS, from the HR2 region of SARS-CoV-2 spike.

Each scFv is VH, a (GGGGS)3 linker, VL, as in the parent Ab-14, and differs from it in the CDRs of the heavy chain only.
VH: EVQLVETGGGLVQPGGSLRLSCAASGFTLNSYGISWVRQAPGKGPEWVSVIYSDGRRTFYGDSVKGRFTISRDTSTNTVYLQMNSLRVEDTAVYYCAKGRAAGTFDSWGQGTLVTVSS
VL: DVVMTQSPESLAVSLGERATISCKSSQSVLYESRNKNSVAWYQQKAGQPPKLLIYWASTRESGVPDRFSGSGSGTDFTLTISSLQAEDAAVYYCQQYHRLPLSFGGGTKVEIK

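The starting antibody came from a phage panning campaign against this peptide. The library (AAYL49) carries one to three amino acid substitutions per variant, with no insertions or deletions. In AlphaSeq, yeast of one mating type display the scFv and yeast of the other type display the target. The frequency of each diploid, read from paired DNA barcodes, reflects how well the two displayed proteins bind. Scores were corrected for input abundance and mapped to Kd with protein pairs of known affinity run in the same pool. Mating was done three times.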

Each variant is given by its three heavy chain CDRs, as the data file delimits them; those of the parent are GFTLNSYGIS, VIYSDGRRTFYGDSVK, GRAAGTFDS.
Values are log10 of the apparent Kd in nM; lower means stronger binding.
The mean shown is taken over the replicates in which the pair was detected.
An entry "nd" has no value in the source: the pair was not observed among the diploids in any replicate. This suggests poor binding but is not conclusive.

GFTLYSYGIS, VIYSDGRRTFVGDSVK, GRAAGTFDS: nd (0 of 3 replicates; controls 0 of 9).
GFTLNSYGIS, VIESDGRRTFYGDSFK, GRAAGTFMS: 3.68 (1 of 3 replicates; controls 3 of 9).
GFTLNSMGIS, VIYSDGRRTFYGDYVK, GRAAGTGDS: nd (0 of 3 replicates; controls 0 of 9).
GFTLNCYGIS, VIYSDGIRTFYGDSVK, GRMAGTFDS: 1.38 (3 of 3 replicates; controls 3 of 9).
GFTLNSYGIS, VIYSDGRRTFYGWSAK, DRAAGTFDS: nd (0 of 3 replicates; controls 0 of 9).
GFTYNSYGIS, VIYSDGRRPFYGDSVK, GFAAGTFDS: nd (0 of 3 replicates; controls 1 of 9).
PFTLNSYGIS, WIYSDGRRTFYGDSVK, GRAATTFDS: nd (0 of 3 replicates; controls 1 of 9).
GFTLNSYGIS, VIYSDGRRTFYCDSRK, GHAAGTFDS: nd (0 of 3 replicates; controls 0 of 9).
GFTLNSYGIS, VIYSDGRRTFYGDSVK, GRIAGTCDS: nd (0 of 3 replicates; controls 0 of 9).
GFTLNSDGIS, VIYSDGRRTFYGDSGK, GRAPGTFDS: nd (0 of 3 replicates; controls 1 of 9).
YFTLNSHGIS, VIYSDGRRTFYGFSVK, GRAAGTFDS: nd (0 of 3 replicates; controls 0 of 9).
GFTLNSYGIS, VIYSDGRRTFYRSSRK, GRAAGTFDS: nd (0 of 3 replicates; controls 0 of 9).
GFTLNSYGIS, VICSDGLRTFYGDGVK, GRAAGTFDS: nd (0 of 3 replicates; controls 0 of 9).
GFTLNSEGIS, VITSDGRRTFYGDSVK, GRAAGTFDS: 2.91 (3 of 3 replicates; controls 4 of 9).
GLVLNSYGIS, VIYSDGRRTFYGDSVK, GRGAGTFDS: 2.03 (3 of 3 replicates; controls 1 of 9).

Continued, with the values leading:

nd (0 of 3 replicates; controls 0 of 9): GFTLNSYGIS, VIYSDKRRTFYGDSVK, GRAAPTTDS.
nd (0 of 3 replicates; controls 0 of 9): GFTLNSYGIS, VIYSKGRRTFYGDSAK, GRAAGTFDS.
5.31 (1 of 3 replicates; controls 3 of 9): GFTLHSYGIS, VIYSDGRRTKYGDSVK, GRAAGTFDS.
nd (0 of 3 replicates; controls 0 of 9): GFGLNSYGIS, VIYSDGRRTFFGDSVK, GRAAGHFDS.
nd (0 of 3 replicates; controls 0 of 9): GFTLNSYAIS, VIYSDGRRYFYGDSVK, GRAAGTFDR.
3.34 (2 of 3 replicates; controls 1 of 9): GFCLNSYGIS, VIYSDGRRTFIGDSVK, GRAAGTFDF.
nd (0 of 3 replicates; controls 0 of 9): GFTLNSYGDS, VIYSDGRRTFYGDSVK, GRAAGVLDS.
nd (0 of 3 replicates; controls 0 of 9): GFTLNSYGIS, VIYSDGHRTFYGDAVK, ARAAGTFDS.
nd (0 of 3 replicates; controls 0 of 9): GFTLNSYGIS, VIYSDNRRTFYGDSVK, GRSARTFDS.
3.49 (3 of 3 replicates; controls 1 of 9): GFTLNSYGCS, VIYSDGDRTFYGDSVK, GRAAGTFDS.
nd (0 of 3 replicates; controls 1 of 9): GFTLNSYGIS, VIYSKGRRTFYGDSVK, GRAAWTFDS.
nd (0 of 3 replicates; controls 0 of 9): GFTLNRYGIS, VGYSDGRRTFYGDSEK, GRAAGTFDS.
4.02 (1 of 3 replicates; controls 1 of 9): GFTLNSYAIS, VIYSDGRRTFYGDMVK, GRAASTFDS.
nd (0 of 3 replicates; controls 0 of 9): GFTLNSYGIS, VIISDGRRTFYGDSVK, GRAAQVFDS.
nd (0 of 3 replicates; controls 0 of 9): GFTLNSYGIS, VYYSDHRRTFYGDSVK, GRAAGTEDS.

4 of these entries, quoted again:

With GFTLNSYGIS, VIYSKGRRTFYGDSVK, GRAAWTFDS the result was nd (0 of 3 replicates; controls 1 of 9).
With GFTLNSYGIS, VYYSDHRRTFYGDSVK, GRAAGTEDS the result was nd (0 of 3 replicates; controls 0 of 9).
With GFTLNSYGCS, VIYSDGDRTFYGDSVK, GRAAGTFDS the result was 3.49 (3 of 3 replicates; controls 1 of 9).
With GFTLNRYGIS, VGYSDGRRTFYGDSEK, GRAAGTFDS the result was nd (0 of 3 replicates; controls 0 of 9).

As a blank, each scFv also met three strains without target: over library AAYL49, 15% of these pairings were detected, typically at 4.06 and seldom below 2.83. Also given: how often the same scFv was detected with the empty control strains.